Drawing on article PMC3101112 (Cancer Management and Research, 2011), this text covers IC50 for one compound.

By IC50 is commonly meant the concentration that inhibits the measured activity by half.

The subject of the assay is RAF. As to the kind of experiment: Biochemical inhibition profile, RAF. Also on record: species or system Human. The note with it: read-out: Biochemical Inhibition Profile IC50, RAF.

`CNC(=O)c1cc(Oc2ccc(NC(=O)Nc3ccc(Cl)c(C(F)(F)F)c3)cc2)ccn1` [Sorafenib]: the IC50 amounted to 19.5 nM.
